Results on one compound are retold here after patent US20250009779A1 (priority 2021, published 2025).

The experiment deals with pDCs. The class given is cell-based, human.

For the compound `O.O=C([O-])CCC(=O)C(=O)[O-].[Na+].[Na+]` [α-KG, α-ketoglutaric acid disodium salt hydrate], the “IFNA expression by TLR9-activated pDCs undergoing ER stress” value is given as “rescued”.
